Assay results published in patent publication US9890152B2 (Genentech, Inc., priority 2012, dated 2018).

Sequences of proteins named here, by UniProt entry; tags and fusion partners are left off. Residues count along the entry.
UniProt P00533, 25-1210 T790M/L858R limits assumed: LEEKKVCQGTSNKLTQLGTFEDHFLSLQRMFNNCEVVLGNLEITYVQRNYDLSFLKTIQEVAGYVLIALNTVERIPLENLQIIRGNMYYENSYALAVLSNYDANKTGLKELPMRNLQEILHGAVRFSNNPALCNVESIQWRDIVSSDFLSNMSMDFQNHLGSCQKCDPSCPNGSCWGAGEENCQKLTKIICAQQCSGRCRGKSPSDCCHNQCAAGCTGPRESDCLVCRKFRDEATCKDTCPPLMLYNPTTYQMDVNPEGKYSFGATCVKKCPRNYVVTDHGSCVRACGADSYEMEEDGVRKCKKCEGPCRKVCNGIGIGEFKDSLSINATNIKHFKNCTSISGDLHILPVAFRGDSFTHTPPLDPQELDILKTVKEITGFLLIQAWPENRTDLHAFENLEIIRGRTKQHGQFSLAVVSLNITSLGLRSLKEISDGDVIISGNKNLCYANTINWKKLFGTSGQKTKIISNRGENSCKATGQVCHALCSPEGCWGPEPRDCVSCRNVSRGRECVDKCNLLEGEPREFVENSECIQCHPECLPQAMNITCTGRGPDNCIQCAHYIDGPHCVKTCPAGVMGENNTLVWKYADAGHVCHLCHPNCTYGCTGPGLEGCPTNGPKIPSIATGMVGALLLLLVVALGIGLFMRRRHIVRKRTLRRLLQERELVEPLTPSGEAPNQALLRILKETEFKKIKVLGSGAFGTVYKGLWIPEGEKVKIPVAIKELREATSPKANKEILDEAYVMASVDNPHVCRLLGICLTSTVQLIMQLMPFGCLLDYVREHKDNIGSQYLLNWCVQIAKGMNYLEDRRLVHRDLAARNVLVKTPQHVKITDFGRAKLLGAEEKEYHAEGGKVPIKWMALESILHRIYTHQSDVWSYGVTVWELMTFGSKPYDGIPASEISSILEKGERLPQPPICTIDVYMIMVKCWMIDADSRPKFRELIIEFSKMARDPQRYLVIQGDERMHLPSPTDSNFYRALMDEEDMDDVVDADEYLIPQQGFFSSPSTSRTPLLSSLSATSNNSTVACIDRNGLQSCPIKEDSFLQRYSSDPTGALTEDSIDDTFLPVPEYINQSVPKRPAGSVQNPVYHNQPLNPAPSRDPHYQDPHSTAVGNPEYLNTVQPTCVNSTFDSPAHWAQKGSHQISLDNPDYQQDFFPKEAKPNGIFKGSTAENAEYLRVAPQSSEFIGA

target: EGFR T790M L858R (Homo sapiens, UniProt P00533, L858R/T790M); test: biochemical; settings: EGFR(T790M/L858R) Ki (μM), 5 μM ATP, 30 min, room temperature; apparent Ki (Morrison) converted by Cheng-Prusoff, Km of ATP 1.3 μM

Going from `CC(C)n1cc(C(=O)NCCS(C)(=O)=O)c2cnc(Nc3ccnc(-c4cnn(S(=O)(=O)C5CC5)c4)n3)cc21` [Example 452, 6-(2-(1-(cyclopropylsulfonyl)-1H-pyrazol-4-yl)pyrimidin-4-ylamino)-1-isopropyl-N-(2-(methylsulfonyl)ethyl)-1H-pyrrolo[3,2-c]pyridine-3-carboxamide] to `CC(C)n1cc(C(=O)NC2CCOC2)c2cnc(Nc3ccnc(-c4cnn(S(=O)(=O)C5CC5)c4)n3)cc21` (centres unmarked) [Example 453, 6-(2-(1-(cyclopropylsulfonyl)-1H-pyrazol-4-yl)pyrimidin-4-ylamino)-1-isopropyl-N-(tetrahydrofuran-3-yl)-1H-pyrrolo[3,2-c]pyridine-3-carboxamide], the Ki falls from 0.00166 µM to 0.000489 µM (3.4-fold). The second binds more tightly here.

Going from `CC(C)n1cc(C(=O)NC2CCC(O)CC2)c2cnc(Nc3ccnc(-c4cnn(S(=O)(=O)C5CC5)c4)n3)cc21` (centres unmarked) [Example 454, 6-(2-(1-(cyclopropylsulfonyl)-1H-pyrazol-4-yl)pyrimidin-4-ylamino)-N-(4-hydroxycyclohexyl)-1-isopropyl-1H-pyrrolo[3,2-c]pyridine-3-carboxamide] to `CC(C)n1cc(C(=O)NC2CCSCC2)c2cnc(Nc3ccnc(-c4cnn(S(=O)(=O)C5CC5)c4)n3)cc21` [Example 458, 6-(2-(1-(cyclopropylsulfonyl)-1H-pyrazol-4-yl)pyrimidin-4-ylamino)-1-isopropyl-N-(tetrahydro-2H-thiopyran-4-yl)-1H-pyrrolo[3,2-c]pyridine-3-carboxamide], the Ki rises from 0.000548 µM to 0.00139 µM (2.5-fold). The first binds more tightly here.

`CC(C)n1cc(C(=O)NC2CC[S+]([O-])CC2)c2cnc(Nc3ccnc(-c4cnn(S(=O)(=O)C5CC5)c4)n3)cc21` (centres unmarked) [Example 455, 6-((2-(1-(cyclopropylsulfonyl)-1H-pyrazol-4-yl)pyrimidin-4-yl)amino)-1-isopropyl-N-(1-oxidotetrahydro-2H-thiopyran-4-yl)-1H-pyrrolo[3,2-c]pyridine-3-carboxamide] and `CC(C)n1cc(C(=O)NC2CCS(=O)(=O)CC2)c2cnc(Nc3ccnc(-c4cnn(S(=O)(=O)C5CC5)c4)n3)cc21` [Example 457, 6-((2-(1-(cyclopropylsulfonyl)-1H-pyrazol-4-yl)pyrimidin-4-yl)amino)-N-(1,1-dioxidotetrahydro-2H-thiopyran-4-yl)-1-isopropyl-1H-pyrrolo[3,2-c]pyridine-3-carboxamide] are within 1.5-fold of each other in Ki: 0.000736 µM for the first, 0.000528 µM for the second.

`CC(C)n1cc(C(=O)NC2CC[S+]([O-])CC2)c2cnc(Nc3ccnc(-c4cnn(S(=O)(=O)C5CC5)c4)n3)cc21` (centres unmarked) [Example 456, 6-((2-(1-(cyclopropylsulfonyl)-1H-pyrazol-4-yl)pyrimidin-4-yl)amino)-1-isopropyl-N-(1-oxidotetrahydro-2H-thiopyran-4-yl)-1H-pyrrolo[3,2-c]pyridine-3-carboxamide] and `CC(C)n1cc(C(=O)NC2CCCOC2)c2cnc(Nc3ccnc(-c4cnn(S(=O)(=O)C5CC5)c4)n3)cc21` (centres unmarked) [Example 459, 6-(2-(1-(cyclopropylsulfonyl)-1H-pyrazol-4-yl)pyrimidin-4-ylamino)-1-isopropyl-N-(tetrahydro-2H-pyran-3-yl)-1H-pyrrolo[3,2-c]pyridine-3-carboxamide] are within 1.5-fold of each other in Ki: 0.000728 µM for the first, 0.0006 µM for the second.

`CC(C)n1cc(C2CC(=O)N(CCO)C2)c2cnc(Nc3ccnc(-c4cnn(S(=O)(=O)C5CC5)c4)n3)cc21` (centres unmarked) [Example 460, 4-(6-(2-(1-(cyclopropylsulfonyl)-1H-pyrazol-4-yl)pyrimidin-4-ylamino)-1-isopropyl-1H-pyrrolo[3,2-c]pyridin-3-yl)-1-(2-hydroxyethyl)pyrrolidin-2-one] and `Cc1nc2cnc(Nc3ccnc(-c4cnn(S(=O)(=O)C5CC5)c4)n3)cc2[nH]1` [Example 461, N-(2-(1-(cyclopropylsulfonyl)-1H-pyrazol-4-yl)pyrimidin-4-yl)-2-methyl-1H-imidazo[4,5-c]pyridin-6-amine] are within 1.5-fold of each other in Ki: 0.0905 µM for the first, 0.0829 µM for the second.

For `Cc1nc2cnc(Nc3ccnc(NCC(C)(C)C(=O)N(C)C)n3)cc2n1C(C)C` [Example 462, 3-(4-(1-isopropyl-2-methyl-1H-imidazo[4,5-c]pyridin-6-ylamino)pyrimidin-2-ylamino)-N,N,2,2-tetramethylpropanamide], the Ki was 0.137 µM.
